Sampled rows, rich in hits. Any-hit rate of the full collection: about 13%.
ALDH1A1 inh: ALDH1A1 (human) enzyme inhibition. P00352. Purified ALDH1A1, NADH fluorescence, propionaldehyde substrate. Potency, µM (series often up to 75.3 µM), for the others: at the highest dose activity, negative = inhibition, actives largely listed as inhibitors. hit rate 7.3% among 220,000; active means well fitted inhibition curve with a large enough effect, not every such curve was filed as active; inconclusive means small, poorly fitted or top-dose-only effect, or another doubt; inactive means no such curve, though single readings can be large or run the other way;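 further: potency means the concentration at half of the fitted maximal effect; plate controls were no enzyme wells and a reference inhibitor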
Sfp inh: qHTS Assay for Inhibitors of Bacillus subtilis Sfp phosphopantetheinyl transferase (PPTase). Potency, µM, inactives show max response, negative = inhibition, most hits filed as inhibitors. Biochemical Sfp PPTase activity, qHTS. AID 1490, 2009. 4'-phosphopantetheinyl transferase ffp (Bacillus subtilis), Q9F4F7. hit rate 3.5% among 310,000; active = well fitted inhibition curve with a large enough effect; inconclusive = small, poorly fitted or top-dose-only effect, or another doubt; inactive = no such curve, though single readings can be large or run the other way;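 also: the enzyme is Sfp with the accession as filed and its product quenches rhodamine fluorescence; potency is read from the fitted curve at half-maximal effect; 0% = enzyme reaction without inhibitor and -100% = no enzyme wells; top concentration of the series not given in the record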
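Fluorescence-quenching assay with 15 nM Sfp, 5 uM rhodamine-CoA and 12.5 uM BHQ-2-labelled ybbR peptide in pH 7.6 Hepes/MgCl2 buffer. Enzyme was pre-incubated with compound for 15 min at room temperature. Rate was taken from the 30-min fluorescence change (525/598 nm).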
Lamin A splicing: changes lamin A minigene splicing in HeLa cells; HeLa LMNA splicing GFP/RFP minigene ratio, 48 h; Potency, µM (doses to about 46.1 µM), without a hit: at the highest dose ratio change, negative = inhibition, most hits filed as inhibitors; hit rate 0.01% among 200,000; AID 1487; active means well fitted inhibition curve with a large enough effect in the signal ratio, with a control signal flat, not every such curve was filed as active; inconclusive means small, poorly fitted or top-dose-only effect, or effect the other way, or a change in a side signal; the % refers to the signal ratio; further: potency means the concentration at half of the fitted maximal effect; on the % scale 0 is the no-effect control and ±100 the full control effect
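S3 HeLa stable clones carrying a lamin A-EGFP splicing minigene plus DsRed2 were seeded at 600 cells/well in Opti-MEM with 2% FBS, pin-dosed and incubated 48 h at 37°C. Acumen cytometry (488 nm) gave the GFP/RFP total-intensity ratio.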
KDM4E inh: blocks human JMJD2E demethylase activity; JMJD2E catalytic domain, FDH-coupled NADH fluorescence (FDH is formaldehyde dehydrogenase); Potency, µM (top dose mostly 57.1 µM), inactives show top-dose activity change, negative = inhibition, usual class: inhibitors; hit rate 1.6% among 230,000; AID 2147; active means well fitted inhibition curve with a large enough effect, not every such curve was filed as active; inconclusive means small, poorly fitted or top-dose-only effect, or another doubt; inactive means no such curve, though single readings can be large or run the other way;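 further: potency means the concentration at half of the fitted maximal effect; 0% = wells with enzyme and -100% = buffer wells without enzyme; nearly all actives have a fitted effect of over 50% in size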
G9a block: G9a (human) methyltransferase inhibition; Q96KQ7; G9a H3K9 monomethylation, AlphaScreen, 2 h; Potency, µM (titrated, usually from 102 µM), inactives show at the top dose activity, negative = inhibition, most hits filed as inhibitors; hit rate 8.8% among 350,000; further: potency means the concentration at half of the fitted maximal effect; on the % scale 0 is the no-effect control and ±100 the full control effect; nearly all actives have a fitted effect of over 75% in size
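G9a (20 nM) was preincubated 15 min with compound, then reacted 2 h at room temperature with 500 nM biotin-H3K9 peptide and 20 µM SAM. Monomethyl-H3K9 detected by AlphaScreen using anti-H3K9me1 antibody.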
miR-21 reporter: raises the signal of a miR-21 reporter | HeLa miR-21 FLuc reporter, luciferase, 48 h | Potency, µM (doses to about 38.3 µM), for the others: at the highest dose reporter change, positive = more light | 340,000 tested, under 10 active | AID 2288; active = well fitted rising curve with a large enough effect; inconclusive = small, poorly fitted or top-dose-only effect; inactive = no such curve, though single readings can be large or run the other way;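 also: % of control where 0% means no effect; miR-21 action dims this reporter so a rising signal means less miR-21 action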
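HeLa cells endogenously expressing miR-21, stably carrying CMV-driven firefly luciferase with a downstream miR-21 binding site, 2000 cells/well. Titrations up to approximately 40 uM, 48 hours; luciferase luminescence read.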
Numbers without * were called inactive; ? = inconclusive; nt = not tested or not shown; [ ] = remark or other dose. Unless noted, the call rests on the fitted dose curve; in most records, active means well fitted curve in the direction sought with a large enough effect; inconclusive means small, poorly fitted or top-dose-only effect, or another doubt; inactive means no such curve, though single readings can be large; an effect the other way counts as inactive or inconclusive.

Keys – A = ALDH1A1 inh; B = Sfp inh; C = Lamin A splicing; D = KDM4E inh; E = G9a block; F = miR-21 reporter
> CCOc1ccc(S(=O)(=O)Nc2ccccn2)c2ccccc12
  A: ?; B: 14.9%; C: -3.9%; D: -0.5%; E: 43.0%[59 µM]; F: -3.0%
> COc1ccc(S(=O)(=O)Nc2ccccn2)c(C)c1C
  A: 25.1µM*; B: 6.6%; C: -7.4%; D: 1.2%; E: -44.8%[12.7 µM]; F: -0.1%
> CC(C)[C@H](NS(=O)(=O)c1ccccc1)C(=O)OCC(=O)N1N=C(c2ccc(Cl)cc2)CC1c1ccco1 (stereo not given in full)
  A: -8.2%; B: -17.0%; C: ?; D: ?; E: -16.4%[59 µM]; F: 11.2%
> COc1ccc2nc3sc(C(=O)N4CCN(c5ccc(F)cc5)CC4)cc3cc2c1
  A: nt; B: nt; C: nt; D: nt; E: -0.2%[59 µM]; F: 1.5%
> O=C1c2ccccc2C(=O)C1c1ccc(O)cc1
  A: -31.4%; B: ?; C: nt; D: ?; E: -35.2%; F: -8.3%
> O=C1c2ccccc2C(=O)C1c1ccc(Cl)cc1
  A: nt; B: 16.7%; C: nt; D: nt; E: 44.7µM*; F: -49.5%
> COC(=O)c1ccccc1-c1ccc(C(c2c(C)[nH][nH]c2=O)c2c(C)[nH][nH]c2=O)o1
  A: 10.7%; B: 6.0%; C: nt; D: -0.3%; E: 2.0%; F: 4.9%
> COC(=O)c1cccc(-c2ccc(C(c3c(C)[nH][nH]c3=O)c3c(C)[nH][nH]c3=O)o2)c1
  A: 6.31µM*; B: 8.91µM*; C: -18.1%[46 µM]; D: 8.1%; E: 2.24µM*; F: -6.5%
> Cc1[nH][nH]c(=O)c1C(c1ccc(-c2ccc(Cl)c(C(=O)O)c2)o1)c1c(C)[nH][nH]c1=O
  A: 10µM*; B: -71.5%; C: 29.0%[46 µM]; D: 12.5%; E: 3.16µM*; F: -0.7%
> COc1ccc(CN(C)S(=O)(=O)c2nnc(NC(=O)c3cccc(C)c3)s2)cc1OC
  A: nt; B: 12.3%; C: nt; D: nt; E: -9.4%; F: -6.2%
> Cc1c(C(=O)Nc2ccccc2)cn2c(nc3ccccc32)c1C#N
  A: ?; B: 0.7%; C: 5.1%; D: ?; E: -5.4%[59 µM]; F: -6.2%
> Cc1ccccc1C(=O)Nc1ccc2c(C#N)c3nc4ccccc4nc3n2c1
  A: ?; B: 56.2µM*; C: ?; D: ?; E: 5.01µM*; F: -1.1%
> O=C(NNc1ccccc1)/C(=C\c1cccnc1)NC(=O)c1ccccc1
  A: nt; B: 17.3%; C: nt; D: 3.3%; E: 3.98µM*; F: -3.3%
> COc1ccc(C2c3[nH]c4ccccc4c3CC3C(=O)N(CCc4ccc(OC)c(OC)c4)CC(=O)N32)cc1 (stereo not given)
  A: ?; B: -16.6%; C: nt; D: 1.9%; E: nt; F: nt
> CCN1C(=O)[C@@H]2Cc3c([nH]c4ccccc34)C(c3ccc(OC)cc3)N2C1=S (stereo not given in full)
  A: nt; B: 10.7%; C: nt; D: nt; E: 35.5µM*; F: 8.6%
> COc1ccc(NC(=O)Cc2csc(NC(=O)Nc3ccccc3OC)n2)c(OC)c1
  A: nt; B: nt; C: nt; D: nt; E: 50.1µM*; F: nt
> COc1ccc(NC(=S)Nc2nc(CC(=O)Nc3ccccc3OC)cs2)cc1
  A: ?; B: -10.9%; C: ?; D: -3.7%; E: -18.3%[59 µM]; F: 16.5%
> COc1ccc(OC)c(NC(=O)Cc2csc(NC(=O)Nc3ccccc3OC)n2)c1
  A: nt; B: nt; C: nt; D: nt; E: 44.7µM*; F: nt
> COc1ccccc1NC(=S)N(Cc1ccc(C)cc1)Cc1ccccn1
  A: ?; B: 44.7µM*; C: nt; D: 8.2%; E: 6.6%[59 µM]; F: 0.6%
> COc1ccccc1NC(=S)N(Cc1ccc(C)cc1)Cc1cccnc1
  A: -2.2%; B: 21.4%; C: nt; D: -4.7%; E: 4.3%[59 µM]; F: 13.1%
> COc1ccc(CCN(Cc2ccccn2)C(=S)Nc2cccc(SC)c2)cc1OC
  A: ?; B: 44.7µM*; C: nt; D: -6.8%; E: 10µM*; F: 0.4%
> CCOc1cc(C(=O)N2CC(=O)Nc3ccc(C)cc3C2c2ccccc2)cc(OCC)c1OCC (stereo not given)
  A: nt; B: nt; C: nt; D: nt; E: 6.3%[59 µM]; F: -1.2%
> O=C1OCC(CO)(CO)N=C1NNc1cc(Cl)ccc1Cl
  A: ?; B: ?; C: 10.3%; D: -11.9%; E: 50.1µM*; F: -13.6%
> Cc1ccccc1NC(=O)Cn1c(=O)n(CCCC(=O)NCc2ccc3c(c2)OCO3)c(=O)c2ccccc21
  A: nt; B: nt; C: nt; D: nt; E: 4.8%[59 µM]; F: 2.3%
> Cc1c(NC(=O)C(C)(C)Oc2ccc(Cl)cc2)cccc1-c1nc2ccccc2o1
  A: nt; B: nt; C: nt; D: nt; E: 21.8%[59 µM]; F: ?

Some of the entries so far, field by field.
> O=C1c2ccccc2C(=O)C1c1ccc(O)cc1
  ALDH1A1 inh: -31.4%
  Sfp inh: ?
  Lamin A splicing: nt
  KDM4E inh: ?
  G9a block: -35.2%
  miR-21 reporter: -8.3%
> COc1ccc(C2c3[nH]c4ccccc4c3CC3C(=O)N(CCc4ccc(OC)c(OC)c4)CC(=O)N32)cc1 (stereo not given)
  ALDH1A1 inh: ?
  Sfp inh: -16.6%
  Lamin A splicing: nt
  KDM4E inh: 1.9%
  G9a block: nt
  miR-21 reporter: nt

New compounds follow:
Keys – A = ALDH1A1 inh; B = Sfp inh; C = Lamin A splicing; D = KDM4E inh; E = G9a block; F = miR-21 reporter
> Cc1cc(Cl)ccc1OCCCC(=O)N1CCCCC1
  A: -13.7%; B: 79.4µM*; C: 17.9%; D: 0.3%; E: 15.0%[12.7 µM]; F: -55.5%
> O=C(CCCOc1ccc(Cl)cc1Cl)N1CCc2ccccc2C1
  A: -2.1%; B: 17.8µM*; C: -0.1%; D: -8.5%; E: 30.5%[59 µM]; F: -10.3%
> CCc1ccc(-n2c(=O)c3c4c(sc3n(CC(=O)N3CCCCC3CC)c2=O)CCC4)cc1 (stereo not given)
  A: nt; B: nt; C: nt; D: nt; E: -43.9%[59 µM]; F: -1.6%
> CCn1ccnc1CN(C)C(=O)c1cc(COc2ccccc2SC)on1
  A: nt; B: -2.1%; C: nt; D: nt; E: ?; F: -52.0%
> Ic1ccc(N2CCN(Cc3c[nH]c4ncccc34)CC2)cc1
  A: -7.9%; B: 4.0%; C: ?; D: -4.5%; E: 23.8µM*; F: nt
> Cc1ccccc1Nc1c(-c2cccnc2)nc2ccc(Cl)cn12
  A: nt; B: nt; C: nt; D: nt; E: 7.0%[59 µM]; F: 14.6%
> CCOC(=O)Cn1nnnc1CN(Cc1ccccc1)Cc1cc2cc(CC)ccc2[nH]c1=O
  A: ?; B: 2.7%; C: ?; D: ?; E: -16.7%[59 µM]; F: -10.2%
> Cc1ccc2[nH]c(=O)c(CN(Cc3ccc4c(c3)OCO4)Cc3nnnn3Cc3ccco3)cc2c1
  A: 25.1µM*; B: -8.5%; C: -5.0%; D: ?; E: ?; F: 0.3%
> Cc1cc(C)c2cc(CN(Cc3ccc4c(c3)OCO4)Cc3nnnn3Cc3ccco3)c(=O)[nH]c2c1
  A: 4.47µM*; B: 14.1µM*; C: 5.5%; D: ?; E: -8.2%[12.7 µM]; F: -11.0%
> O=c1[nH]c2cc3c(cc2cc1CN(Cc1ccc2c(c1)OCO2)Cc1nnnn1CC1CCCO1)OCO3 (stereo not given)
  A: ?; B: -2.3%; C: -5.7%; D: ?; E: 0.2%[12.7 µM]; F: -2.4%
> O=C(COC(=O)CN1C(=O)C2CCCCC2C1=O)Nc1cc(F)ccc1F (stereo not given)
  A: nt; B: nt; C: nt; D: nt; E: -6.6%; F: nt
> O=C1CSC(c2ccc([N+](=O)[O-])cc2)N1CCN1CCCCC1 (stereo not given)
  A: ?; B: -3.3%; C: ?; D: 0.1%; E: -28.4%; F: -1.6%
> COc1cc(C2SCC(=O)N2CCN2CCCCC2)ccc1O (stereo not given)
  A: 3.5%; B: 23.5%; C: ?; D: -2.0%; E: 50.1µM*; F: 3.0%
> CCCNC(=O)c1ccc(N2CCC3(CC2)CC(c2ccccc2)=NO3)c(NC(=O)c2ccccc2)c1
  A: nt; B: 56.2µM*; C: nt; D: nt; E: nt; F: 6.5%
> COC(CNC(=O)c1ccc(N2CCC3(CC2)OCCO3)c([N+](=O)[O-])c1)OC
  A: 28.2µM*; B: ?; C: -18.4%; D: -1.7%; E: 12.7%; F: -13.1%
> CCCNC(=O)c1ccc(N2CCC3(CC2)CC(c2cccc(Br)c2)=NO3)c([N+](=O)[O-])c1
  A: nt; B: -0.6%; C: nt; D: nt; E: 79.4µM*; F: 15.8%
> O=C(c1ccc(N2CCC3(CC2)OCCO3)c([N+](=O)[O-])c1)N1CCOCC1
  A: -7.1%; B: -10.6%; C: ?; D: -2.6%; E: -7.5%; F: -16.2%
> CCCNC(=O)c1ccc(N2CCC3(CC2)CC(c2ccccc2)=NO3)c(NC(=O)c2ccc(Br)cc2)c1
  A: nt; B: 20.2%; C: nt; D: nt; E: ?; F: -0.1%
> COc1ccccc1NC(=O)N(Cc1ccco1)Cc1cc2c(C)ccc(C)c2[nH]c1=O
  A: 17.8µM*; B: -7.9%; C: -17.7%; D: ?; E: ?; F: 15.6%

Assay outcomes (PubChem BioAssay)
